Experimental data as given in PubChem BioAssay AID1777 (Sanford-Burnham Center for Chemical Genomics, 2009).
“And” between values parts separate entries of the source, which are not always exact repeats. Equal values may be shown once. Some of the results follow. Measured potencies and affinities stand elsewhere. The source made the active and inactive calls. Cut-off read from the data, not from the text of the source: active = activation above about 50% (passing the limit was not always enough); inactive = the rest.

Amino acid sequences for entries named in this document (tags omitted). A change or cut given only in a name is not applied to a line headed by its entry.
UniProt P41145: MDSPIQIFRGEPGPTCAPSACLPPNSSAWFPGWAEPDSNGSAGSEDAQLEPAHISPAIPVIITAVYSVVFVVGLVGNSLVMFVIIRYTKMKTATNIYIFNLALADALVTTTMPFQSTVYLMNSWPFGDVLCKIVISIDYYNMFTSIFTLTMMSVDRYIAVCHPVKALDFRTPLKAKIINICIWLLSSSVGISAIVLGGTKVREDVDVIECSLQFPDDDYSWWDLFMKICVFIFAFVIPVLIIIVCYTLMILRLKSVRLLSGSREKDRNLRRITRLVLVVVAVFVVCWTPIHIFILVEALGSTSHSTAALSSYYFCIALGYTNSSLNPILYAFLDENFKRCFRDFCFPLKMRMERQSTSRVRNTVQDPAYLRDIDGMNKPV

target: Kappa-type opioid receptor (Homo sapiens) (UniProt P41145); assay: kappa opioid receptor activators – cell-based, luminescence, uHTS, primary screen (AID 1777); conditions: KOR beta-arrestin recruitment, at 10 µM, stronger effect = higher value

Row | SMILES | activation
1 | O=C(CCNC(=O)N1CCn2c1nc1ccccc12)NCc1ccc(F)cc1 | inactive: -5.5%
2 | O=C(Cn1c(C(F)(F)F)nc2ccccc21)N1CCCC1 | inactive: -0.1%
3 | Cc1ccc(Cn2nnnc2CN2CCC(n3nnc4cc(C)ccc43)CC2)cc1 | inactive: 7.4%
4 | CC1CCN(C(=O)Cn2cnc3c2c(=O)n(C)c(=O)n3C)c2ccccc2S1 (centres undefined) | inactive: -1.5%
5 | Cn1c(=O)c2c(nc(CN3CCC(Cc4ccccc4)CC3)n2CCN2CCOCC2)n(C)c1=O | inactive: 2.3%
6 | Cc1cccc(CSc2nc3ccncc3n2CC(=O)Nc2cc(C)cc(C)c2)c1 | inactive: 2.7%
7 | C[C@H](NC(=O)N1CCn2c1nc1ccccc12)C(=O)NC1CC1 | inactive: 3.2%
8 | CCC(=O)Nc1cccc(C(=O)/C=C/c2ccc(F)cc2)c1 | inactive: -6.7%
9 | Cc1ccc(NC(=O)Cn2cnc3c(=O)n(C)c(=O)n(C)c32)c(C)c1 | inactive: -2.1%
10 | N=c1n(CCCOc2ccc(Br)cc2)c2ccccc2n1CC(N)=O | inactive: 3.6%
11 | COc1ccc(NC(=O)Cn2c(NCC(C)O)nc3ccccc32)cc1Cl (centres undefined) | inactive: 5%
12 | O=C(Cn1c2[n+](c3ccc(C(F)(F)F)cc31)CCCCC2)Nc1ccc(Br)cc1 | inactive: -1.1%
13 | CC(O)c1nc2ccccc2n1CC(=O)Nc1ccc(F)cc1Cl (centres undefined) | inactive: 1.7%
14 | CN1CCC(N(C)c2nc(-c3ccc([N+](=O)[O-])cc3)nc3ccccc23)CC1 | inactive: 2.6%
15 | C[C@H](NC(=O)N1CCn2c1nc1ccccc12)C(=O)NCc1ccco1 | inactive: 0.6%
16 | O=C(Nc1ccc(F)cc1)N1CCn2c(nc3ccccc32)C1 | inactive: -0.4%
17 | CC(NC(=O)[C@H](C)NC(=O)N1CCn2c1nc1ccccc12)c1ccccc1 (some centres undefined) | inactive: -4.4%
18 | O=C1Nc2ccccc2C12Nc1ccccc1-c1nc3ccccc3n12 (centres undefined) | inactive: 0.2%
19 | Cc1ccccc1OCC(O)Cn1c(=N)n(CCN2CCOCC2)c2ccccc21 (centres undefined) | inactive: -2.4% and inactive: 1.2%
20 | Cc1ccccc1NC(=O)Cn1c(=O)n(C)c2ccccc21 | inactive: 7.1%
21 | CCN(CC)CCn1c(NCc2ccc3c(c2)OCO3)nc2ccccc21 | inactive: 5.4%
22 | O=C(NCc1ccccc1)N1CCn2c(nc3ccccc32)C1 | inactive: -2.1%
23 | Cn1c(=O)c2c(ncn2CC(=O)N/N=C/C(Br)=C/c2ccccc2)n(C)c1=O | inactive: -0.8%
24 | Cc1ccc(S(=O)(=O)Nc2ccc3c(c2)nc2n3CCN(Cc3ccccc3)C2)cc1 | inactive: -1%

Row | SMILES | activation
25 | C[As](=O)(O)c1cccc(C(=O)O)c1 | inactive: 0.4%
26 | COc1ccc(NC(=O)N2CCn3c2nc2ccccc23)cc1 | inactive: 1.4%
27 | O=[As](O)(c1ccc(O)cc1)c1ccccc1O | inactive: 3.5%
28 | CN1CCN(c2nc3c(c(=O)[nH]c(=O)n3C)n2CC(N)=O)CC1 | inactive: 11.9%
29 | CSc1nc2ccccc2n1CC(=O)Nc1c(C)cccc1C | inactive: -6.2%
30 | Cc1ccc(SCc2nc3ccccc3n2CC(=O)Nc2c(C)cccc2C)cc1 | inactive: -2%
31 | Brc1ccc(CNc2nc3ccccc3n2CCN2CCCCC2)cc1 | inactive: 5.2%
32 | COc1ccc(/C=N/NC(=O)Cn2c(Cc3ccc(OC)c(OC)c3)nc3ccccc32)cc1 | inactive: 6.4%
33 | COCCn1c(=O)c2c(nc3n2CCN3c2ccc(C)cc2)n(C)c1=O | inactive: -3%
34 | CC(Cc1ccc(O)cc1)NCC(O)c1cc(O)cc(O)c1 (centres undefined) | inactive: 0.9%
35 | Cc1ccc(OP(=O)(Nc2ccc([N+](=O)[O-])cn2)Oc2ccc(C)cc2)cc1 | inactive: 0.8%
36 | Fc1ccc2c(c1)nnn2C1CCN(Cc2ccccc2)CC1 | inactive: 4.5%
37 | O=C(Cn1c(C(F)(F)F)nc2ccccc21)N/N=C/c1ccco1 | inactive: 0.1%
38 | CCOC(=O)Cn1c(=O)c2c(nc3n2CCN3Cc2ccccc2)n(C)c1=O | inactive: 2.4%
39 | CN(C)CCn1cnc2c1c(=O)n(C)c(=O)n2C | inactive: 0.3%
40 | Cc1ccc2nc3c(c(C)c2c1)CC(C(Cl)Cl)S3 (centres undefined) | inactive: 1%
41 | COc1ccc(CCNC(=O)[C@H](CCSC)NC(=O)N2CCn3c2nc2ccccc23)cc1OC | inactive: -0.5%
42 | COc1cc(NC(=O)[C@@H](NC(=O)N2CCn3c2nc2ccccc23)C(C)C)cc(OC)c1 | inactive: 5.9%
43 | Nc1nonc1-c1nc2ccccc2n1CC(=O)N1CCN(c2ccc(F)cc2)CC1 | inactive: 0.2%
44 | CN(c1ccccc1)S(=O)(=O)c1cccc(NC(=O)Cn2cnc3c2c(=O)n(C)c(=O)n3C)c1 | inactive: -5.8%
45 | CN(C)CCn1c(=N)n(CC(O)c2ccc(Cl)c(Cl)c2)c2ccccc21 (centres undefined) | inactive: 1.3%
46 | Cc1cccc(CSc2nc3ccncc3n2CC(=O)Nc2ccc(C)c(C)c2)c1 | inactive: 1%
47 | Cc1ccc2oc(-c3cccc(NC(=O)Cn4cnc5c(=O)n(C)c(=O)n(C)c54)c3)nc2c1 | inactive: 0.3%
48 | Cc1cc2ncn(C3CC(=O)N(Cc4ccccc4)C3=O)c2cc1C (centres undefined) | inactive: -4.8%

Row | SMILES | activation
49 | c1ccc2c(c1)nc1n2CCN1CCNC1CCCCC1 | inactive: -0.7%
50 | Cn1c(=O)c2ncn(CC(=O)Nc3cccc(-c4nc5ccccc5s4)c3)c2n(C)c1=O | inactive: 2.3%
51 | COc1ccc(N/C(=N/P(=O)(N2CCOCC2)N2CCOCC2)N2CCOCC2)cc1 | inactive: -1.9%
52 | CN(C)C(=O)Cn1c(SCC(=O)NCc2ccc3c(c2)OCO3)nc2ccccc21 | inactive: -4.6%
53 | CC(C)(C)NC(=O)Cn1c(SCC(=O)NC2CC2)nc2ccccc21 | inactive: -2%
54 | Cc1ccc(Cn2nnnc2CN2CCC(n3nnc4cc(C(F)(F)F)ccc43)CC2)cc1 | inactive: -4.4%
55 | Nc1nonc1-c1nc2ccccc2n1CC(=O)NC1CCCC1 | inactive: 2.2%
56 | O=C(O)CCc1nn2c3ccccc3n(CCN3CCCCC3)c2nc1=O | inactive: -6.6%
57 | Cc1cnc(NC(=O)Cn2cnc3c2c(=O)n(C)c(=O)n3C)s1 | inactive: 3.4%
58 | CCN(CC)c1ccc(CNc2nc3ccccc3n2CCN2CCOCC2)cc1 | inactive: -4.6%
59 | Cc1ccc(S(=O)(=O)Nc2ccc(Cl)cc2)cc1NC(=O)Cn1cnc2c1c(=O)n(C)c(=O)n2C | inactive: 1%
60 | CC(C)NC(=O)CSc1nc2ccccc2n1CC(=O)N(C(C)C)C(C)C | inactive: -3.5%
61 | Cc1ccc2c(c1)C1CN(C)CCC1N2C(=O)c1ccco1 (centres undefined) | inactive: -4%
62 | NC(=O)CC(NC(=O)c1cccc(Br)c1)c1ccc(NC2CCN(Cc3ccccc3)CC2)c([N+](=O)[O-])c1 (centres undefined) | inactive: 0.7%
63 | N=c1n(CCN2CCCCC2)c2ccccc2n1CC(O)c1ccc(Cl)c(Cl)c1 (centres undefined) | inactive: 88.4%
64 | Cc1c2c(nc3ccccc13)SC(C(Cl)Cl)C2 (centres undefined) | inactive: -0.7%
65 | O=C(CCCCCNC(=O)N1CCn2c1nc1ccccc12)N[C@@H](C(=O)O)c1ccccc1 | inactive: -0.8%
66 | NC(=O)CS(=O)(=O)c1nc2ccccc2n1CC(=O)N1CCCCC1 | inactive: 2.3%
67 | O=C(Cn1cnc2ccccc21)NC(c1ccccc1)c1ccccc1 | inactive: 6.8%
68 | NC(=O)CC(NC(=O)Cc1ccc(Br)cc1)c1ccc(NC2CCN(Cc3ccccc3)CC2)c([N+](=O)[O-])c1 (centres undefined) | inactive: -4.5%
69 | CCn1cc(C(=O)N2CCn3c(nc4ccccc43)C2)c(=O)c2ccc(C)nc21 | inactive: 1.8%
70 | Cc1cc(=O)[nH]c(N[N+](=O)[O-])n1 | inactive: -0.9%
71 | Cn1c(=O)c2c(nc(Cl)n2CC(=O)N2CCCCC2)n(C)c1=O | inactive: 1.8%
72 | c1ccc2c(c1)ncn2CCN1CCCCC1 | inactive: -6.9%

Row | SMILES | activation
73 | Cn1c(=O)c2c(ncn2CC(=O)Nc2nccs2)n(C)c1=O | inactive: -2.2%
74 | O=C(OC1CN2CCC1CC2)C12CC3CC(CC(C3)C1)C2 (centres undefined) | inactive: -4.1%
75 | O=C1C2CCCCC2C(=O)N1c1ccc(NC2CCN(Cc3ccccc3)CC2)c([N+](=O)[O-])c1 (centres undefined) | inactive: 2.4%
76 | Cc1ccc2c(c1)C1CN(C)CCC1N2C(=S)Nc1ccc(Cl)cc1Cl (centres undefined) | inactive: -3.4%
77 | Cn1c(=O)c2c(nc(NCc3ccccc3)n2CC(N)=O)n(C)c1=O | inactive: 6.7%
78 | C=CCSc1nnc(NC(=O)Cn2cnc3c2c(=O)n(C)c(=O)n3C)s1 | inactive: -2%
79 | Cc1cc2ncn(C3CC(=O)N(C)C3=O)c2cc1C (centres undefined) | inactive: 0%
80 | COc1ccc(CNC(=O)CCNC(=O)N2CCn3c2nc2ccccc23)cc1 | inactive: 6.8%
81 | CC(O)CNc1nc2ccccc2n1CC(=O)N1CCN(Cc2ccccc2)CC1 (centres undefined) | inactive: 1.5%
82 | COc1cccc(NC(=O)[C@@H](NC(=O)N2CCn3c2nc2ccccc23)C(C)C)c1 | inactive: 0.1%
83 | CCCCNc1nc2ccccc2n1CC(=O)Nc1c(C)cccc1CC | inactive: 2.5%
84 | COc1cc(I)ccc1[As](=O)(O)O | inactive: -0.5%
85 | c1ccc(CN2CCC(Nc3nc(-c4ccccc4)nc4ccccc34)CC2)cc1 | inactive: 5.3%
86 | Cc1ccc(/C=N/NC(=O)Cn2cnc3ccccc32)o1 | inactive: -2.9%
87 | Cn1c(=O)[nH]c(=O)c2c1nc(N1CCCCCC1)n2CCN1CCCCCC1 | inactive: 6.3%
88 | CC(C)N(C(=O)Cn1c(-c2ccccc2Cl)nc2ccccc21)c1ccccc1 | inactive: 3.4%
89 | CCOC(=O)c1cccc(NC(=O)Cn2c(CC(=O)NC)nc3ccccc32)c1 | inactive: -2.1%
90 | C(=N\c1nc2ccccc2n1CCN1CCCCC1)/c1cccs1 | inactive: -1.1%
91 | CSCC[C@H](NC(=O)N1CCn2c1nc1ccccc12)C(=O)NCc1ccccc1 | inactive: -3.9%
92 | Cn1c(=O)[nH]c(=O)c2c1nc(CN1CCN(c3ccc(F)cc3)CC1)n2CCN1CCOCC1 | inactive: 1%
93 | COc1ccc2nc(NP(=O)(c3ccccc3)c3ccccc3)sc2c1 | inactive: -6.9%
94 | CCCn1c(=O)[nH]c(=O)c2c1nc(-c1ccc3c(c1)OCCO3)n2CCN1CCOCC1 | inactive: 6.8%
